Measurements published in patent US10694743B2, “Agricultural compositions with reduced aquatic toxicity” (priority 2014, dated 2020).

Tested on: Daphnia magna
Assay: Aquatic toxicity screen, Daphnia sp. Acute Immobilization Test (OECD 202 / OPPTS 850.1010)
Settings: from 48-hour EC50
Description: The study is performed based on procedures in the OECD Guidelines for Testing of Chemicals, Guideline 202: Daphnia sp., Acute Immobilization Test, and U.S. EPA Guidelines, OPPTS Number 850.1010: Aquatic Invertebrate Acute Toxicity Test. The half maximal effective concentration (EC50) after 48 hours is reported below.

“unsaturated C11 fatty amine 5EO ethoxylate [Unsaturated C11 amine 5 EO ethoxylate]” was tested, and the “aquatic toxicity rating” value was “slightly toxic”.
